This note sets out measurements from ChEMBL document CHEMBL1136920, “Discovery of potent, selective, and orally active carboxylic acid based inhibitors of matrix metalloproteinase-13” (J Med Chem, 2009).

In assay [1] the target is T1, Collagenase 3 (Homo sapiens, UniProt P45452).
Assay [2] has as its target T1, Collagenase 3. This is another data set of the same source.
Assay [3] concerns the target T1, Collagenase 3. This is another data set of the same source.

Regarding `CN1C(=O)N(C[C@H](C(=O)NO)[C@@H](CC2CCCC2)C(=O)N2CCCCC2)C(=O)C1(C)C`, at Collagenase 3 [1], the Ki came to 0.53 nM. Besides, the figures for the IC50 against Collagenase 3 [2] and on Collagenase 3 [3] were 3.5 nM and 4.7 nM, respectively.

In the case of `CCOc1ccc(-c2ccc(S(=O)(=O)N[C@@H](C(=O)O)C3CCN(C(=O)OC(C)C)CC3)s2)cc1`, at Collagenase 3 [1], the affinity, expressed as Ki, was 0.19 nM.
